Test results: PubChem BioAssay (NCI)
Where “and” joins values, the source holds several entries; their conditions need not be identical. Equal values may be shown once. The list shows a part of the results, in another mix than the full data. Some salts and complexes are drawn in separate pieces, as the source files them; their charges need not balance. Calls of active or inactive are those of the source. Rule as the data show it: active = growth inhibition above about 70%; inactive = the rest.

Experiment: NCI Yeast Anticancer Drug Screen. Data for the bub3 strain (AID 167)
Conditions: S. cerevisiae bub3 mutant strain, at 50.0 µM, active compounds read high

| Structure (SMILES) | growth inhibition |
| --- | --- |
| CN1CCC2(CC1)NC1CCN(C)CC1S2 (stereo not drawn) | inactive: -0.6% |
| Cc1ccc(N=[N-])cc1.[C-]#[O+].[Mo].[c-]1[c-][c-][cH-][c-]1.c1ccc([PH+](c2ccccc2)c2ccccc2)cc1 | inactive: -0.25% |
| CN([PH+](F)F)[PH+](F)F.CN([PH+](F)F)[PH+](F)F.CN([PH+](F)F)[PH+](F)F.CN([PH+](F)F)[PH+](F)F.CN([PH+](F)F)[PH+](F)F.[Ni].[Ni] | inactive: 12.6% |
| Cc1ccc(N(C)C)cc1.O=[N+]([O-])c1cc([N+](=O)[O-])c(O)c([N+](=O)[O-])c1 | inactive: 1.15% |

Experiment: NCI Yeast Anticancer Drug Screen. Data for the mlh1 rad18 strain (AID 175)
Conditions: S. cerevisiae mlh1 rad18 strain growth inhibition; at 50.0 µM; active compounds read high

| Structure (SMILES) | growth inhibition |
| --- | --- |
| CS/C(=C/[S+](C)C)c1ccccc1.O=[N+]([O-])c1cc([N+](=O)[O-])c(S(=O)(=O)[O-])c([N+](=O)[O-])c1 | inactive: 47.5% |
| CC(C)OP(C)(=O)O.[Tl] | inactive: 4.65% |
| COc1ccc([N+](=O)[O-])cc1[N+](=O)[O-] | inactive: 15.2% |
| N/C(=N\[N+](=O)[O-])N(N)CCN(N)/C(N)=N/[N+](=O)[O-] | inactive: 32.3% |
| NN/C(N)=N/[N+](=O)[O-] | inactive: 18.1% |
| CCCCCCCCCCOP(=O)(Cl)CC (stereo not drawn) | inactive: -19.1% |
| NCCO.O=[N+]([O-])c1cc([N+](=O)[O-])c(O)c([N+](=O)[O-])c1 | inactive: -4.3% |
| COc1ccc2c3c1O[C@H]1C4(OC)CCC5(CC4C(C)(C)O)[C@@H](C2)N(C)CC[C@]315 (stereo partly drawn) | inactive: -13.2% |
| CCOP(C)(=S)Oc1ccc([N+](=O)[O-])cc1 (stereo not drawn) | inactive: 10.2% |
| CN/C(N)=N/[N+](=O)[O-] | inactive: 13.5% |
| [C-]#[O+].[Co].[c-]1[c-][c-][cH-][c-]1.c1ccc([PH+](c2ccccc2)c2ccccc2)cc1 | inactive: -6.5% |
| COC(=O)C(C)(C)C(OP(C)(=O)OC)=C(C)C (stereo not drawn) | inactive: 11.1% |
| O=[N+]([O-])c1cc([N+](=O)[O-])cc([N+](=O)[O-])c1.c1ccc(CCc2cccc3c2ccc2ccccc23)cc1 | inactive: 12.6% |
| O=[N+]([O-])c1cc([N+](=O)[O-])c(NNc2c([N+](=O)[O-])cc([N+](=O)[O-])cc2[N+](=O)[O-])c([N+](=O)[O-])c1 | active: 98.2% |
| CCOC(=O)C(CCSC)Nc1nc2ccccc2o1.O=[N+]([O-])c1cc([N+](=O)[O-])c(O)c([N+](=O)[O-])c1 (stereo not drawn) | inactive: 9.6% |
| O=[N+]([O-])C(F)(CCNCC(F)([N+](=O)[O-])[N+](=O)[O-])[N+](=O)[O-] | active: 88.5% |
| CC1CN1.O=[N+]([O-])c1cc([N+](=O)[O-])c(S(=O)(=O)O)c([N+](=O)[O-])c1 | inactive: 46.1% |
| CCC([N+](=O)[O-])[N+](=O)[O-] | inactive: 25.5% and inactive: 15.9% |
| COc1ccc2c3c1OC1C4(OC)C=CC5(CC4C(C)=O)[C@@H](C2)N(C)CC[C@]315 (stereo partly drawn) | inactive: -2% |
| NCc1ccccc1.O=[N+]([O-])c1cc([N+](=O)[O-])c(O)c([N+](=O)[O-])c1 | inactive: -6.7% |

| Structure (SMILES) | growth inhibition |
| --- | --- |
| COc1c([N+](=O)[O-])cc(Cc2cc([N+](=O)[O-])c(OC)c([N+](=O)[O-])c2)cc1[N+](=O)[O-] | inactive: 7.6% |
| C/C=C/Sc1ccccn1.O=[N+]([O-])c1cc([N+](=O)[O-])c(O)c([N+](=O)[O-])c1 | inactive: 25.3% |
| O=[N+]([O-])c1cc([N+](=O)[O-])c(O)c([N+](=O)[O-])c1.SCCCc1cccnc1 | inactive: -5.5% |
| Br.C[N+]12CCCN(CC1)CC2.O=[N+]([O-])c1cc([N+](=O)[O-])c(O)c([N+](=O)[O-])c1.[Br-] | inactive: 9.5% |
| CCOP(=O)(O)CC.[Eu] | inactive: 8.1% |
| OCCSCCO | inactive: 64.7% |
| CCN(CC)CCOC(=O)C(O)(c1ccccc1)c1ccc(OC)cc1 (stereo not drawn) | inactive: 27.7% |
| Cc1cc(N(CCCl)CCCl)ccc1C1OCCO1.[C-]#[O+].[C-]#[O+].[C-]#[O+].[Cr] | inactive: 37% |
| CCCCOP(=S)(S)OCCCC.[Hg] | inactive: 12.9% |
| O=C(CCN1CCCC(O)C1COC(=O)C(O)(c1ccccc1)c1ccccc1)NCc1ccccc1 (stereo not drawn) | inactive: -19.2% |
| CC(C)OP(C)(=O)O.[Tm] | inactive: 3.95% |
| CCN(CC)CCCN.O=[N+]([O-])c1cc([N+](=O)[O-])c(O)c([N+](=O)[O-])c1 | inactive: 14.6% |
| O=[N+]([O-])c1cc([N+](=O)[O-])c(O)c([N+](=O)[O-])c1.c1ccc(C2CNCCN2)cc1 | inactive: 35% |
| C=C1C(=O)C2CCN1CC2.O=[N+]([O-])c1cc([N+](=O)[O-])c(O)c([N+](=O)[O-])c1 | inactive: 50.8% |
| CC(CO)NC1CCCC1.O=[N+]([O-])c1cc([N+](=O)[O-])c(O)c([N+](=O)[O-])c1 | inactive: 4.2% |
| CN1CCC2(CC1)NC1CCN(C)CC1S2 (stereo not drawn) | inactive: 37.1% |
| Cc1ccc(N=[N-])cc1.[C-]#[O+].[Mo].[c-]1[c-][c-][cH-][c-]1.c1ccc([PH+](c2ccccc2)c2ccccc2)cc1 | inactive: -25.7% |
| CN([PH+](F)F)[PH+](F)F.CN([PH+](F)F)[PH+](F)F.CN([PH+](F)F)[PH+](F)F.CN([PH+](F)F)[PH+](F)F.CN([PH+](F)F)[PH+](F)F.[Ni].[Ni] | inactive: 4.2% |
| Cc1ccc(N(C)C)cc1.O=[N+]([O-])c1cc([N+](=O)[O-])c(O)c([N+](=O)[O-])c1 | inactive: 0.4% |
